# Binding of CDR-mutated scFvs to a peptide of the spike HR2 region

The measurements come from Li et al. 2023 (doi:10.1038/s41467-023-39022-2) through the FLAb antibody collection.

Target: peptide PDVDLGDISGINAS, taken from heptad repeat 2 (HR2) of SARS-CoV-2 spike.

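The parent was found by panning a naive human phage display library on the peptide. The variants were designed computationally from a first round of random CDR variants and then made and measured. Their group label is 14L_Rand (Rand: our label for a block that the file lists under HC and that is probably the random mutants of the ten best first-round binders). AlphaSeq pools MATa yeast showing the antibodies with MATalpha yeast showing the peptide. Binding brings cells together so that they mate, and sequencing counts the barcode pairs among the diploids. The ratio of observed to expected reads was calibrated, replicate by replicate, on BCL2-family standards whose Kd was known from biolayer interferometry. Mating was done six times.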

Ab-14 is the parent antibody, in scFv form: VH, then three GGGGS repeats, then VL. The heavy chain is unchanged in all variants.
VH: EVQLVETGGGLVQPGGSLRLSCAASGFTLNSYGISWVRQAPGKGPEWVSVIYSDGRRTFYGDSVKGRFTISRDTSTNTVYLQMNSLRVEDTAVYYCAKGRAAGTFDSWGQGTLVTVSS
VL: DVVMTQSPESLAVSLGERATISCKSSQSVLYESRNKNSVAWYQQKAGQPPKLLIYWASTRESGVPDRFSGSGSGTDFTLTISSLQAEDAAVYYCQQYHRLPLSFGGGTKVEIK

Positions count from residue 1 of the parent VL; S26G puts G in place of S.
Numbers give log10(Kd / nM), so 0 is 1 nM and 3 is 1 µM. Smaller is tighter.
Averages over replicates are reported, and they cover detected replicates only.
A pair that was not seen in that replicate is written "n.d."; this usually means weak binding, but a binder can also be missed.

| # | changes | replicates, log10 nM | mean log10 Kd (nM) | signal with controls |
|---|---|---|---|---|
| 1 | S26G+S28G+W56G+T59Q+E61W+S62F | 0.36 / 0.34 / 0.79 / 0.46 / 0.30 / 1.50 | 0.62 | 0/18 |
| 2 | S25F+S26V+N35T+W56N+S103H | 0.17 / -0.06 / -0.43 / -0.06 / -0.27 / -0.67 | -0.22 | 0/18 |
| 3 | V29W+S33R+A40G+W56G | n.d. / 1.52 / 1.86 / 2.11 / 0.99 / 1.75 | 1.65 | 2/18 (2.44) |
| 4 | S26L+W56H+S62D+L102M | 0.95 / 0.84 / 0.94 / 1.53 / 0.99 / 0.97 | 1.04 | 1/18 (2.35) |
| 5 | S25Q+S28R+W56D+L100V | 0.29 / 0.31 / 0.56 / 0.27 / 0.14 / 0.31 | 0.31 | 3/18 (2.50) |
| 6 | S25L+S26R+V29T+S33V+K36P | n.d. / 0.82 / 0.54 / 0.39 / 0.69 / 0.55 | 0.60 | 1/18 (2.32) |
| 7 | V29W+V39T+W56G+R60S | 2.28 / 4.75 / 3.38 / n.d. / n.d. / 2.78 | 3.30 | 0/18 |
| 8 | S25C+S28A+S33F+R34V+W56D | 1.32 / 1.27 / 1.25 / 0.94 / 1.03 / 1.32 | 1.19 | 0/18 |
| 9 | S26G+S28G+K36C+W56G+Q95A | 0.85 / 0.85 / 0.87 / 1.18 / 0.98 / 1.36 | 1.02 | 2/18 (2.89) |
| 10 | S25Q+W56D+S58G+Q95F+H98F | 1.95 / 1.79 / 0.78 / 0.53 / 1.65 / 0.71 | 1.23 | 0/18 |
| 11 | K24H+S25C+Q27P+E32R+W56N+H98P | n.d. / n.d. / n.d. / n.d. / n.d. / n.d. | n.d. | 0/18 |
| 12 | Y31F+S33H+W56D+T59G+H98W | 0.15 / 0.81 / 1.12 / -0.12 / 0.47 / 0.84 | 0.54 | 1/18 (1.75) |
| 13 | Q27I+V29Y+W56E+A57P+R60F+R99V+S103C | 1.29 / n.d. / n.d. / n.d. / n.d. / n.d. | 1.29 | 0/18 |
| 14 | Q27I+S28M+V29Y+R34H+W56E | 0.36 / 0.60 / -0.15 / 0.40 / 0.56 / -0.22 | 0.26 | 0/18 |
| 15 | S25P+S26R+S28Q+V29T+S33T+S62E | 1.56 / n.d. / n.d. / n.d. / 2.08 / 2.32 | 1.99 | 0/18 |
| 16 | S26G+S28G+K36H+W56G+S103H | 0.53 / 0.13 / 0.00 / 0.05 / 0.18 / 0.20 | 0.18 | 2/18 (1.83) |
| 17 | S26L+W56H+S62D+Q96A+H98D | 1.25 / 0.88 / 0.61 / 0.81 / 0.99 / 0.97 | 0.92 | 1/18 (2.66) |
| 18 | K24G+Q27I+V29Y+N37R+W56E+T59Q | 0.81 / 0.67 / 1.31 / 1.50 / 1.14 / 1.18 | 1.10 | 0/18 |
| 19 | S25L+S26R+V29T+P101I | 1.54 / 1.45 / 1.00 / 0.76 / 1.13 / 2.45 | 1.39 | 0/18 |
| 20 | V29F+W56G+A57C+P101T | 0.41 / 0.01 / 0.39 / -0.20 / 0.11 / 0.32 | 0.17 | 0/18 |
| 21 | S26N+Q27I+S28I+V29L+K36H+W56E | 0.46 / n.d. / n.d. / n.d. / 1.27 / n.d. | 0.87 | 1/18 (2.91) |
| 22 | S26G+S28G+W56G+T59Y+S103F | 1.64 / 1.12 / 0.86 / 1.44 / 1.55 / 1.08 | 1.28 | 3/18 (2.40) |
| 23 | Y31F+E32K+W56D+A57D+S62F | 0.29 / 0.33 / 0.42 / 0.50 / 1.13 / 0.49 | 0.53 | 0/18 |
| 24 | S25L+S26R+V29T+R60H+S62L | 2.18 / n.d. / n.d. / 3.25 / n.d. / n.d. | 2.71 | 1/18 (3.33) |
| 25 | K24R+S26L+N37P+W56H+S62D | n.d. / n.d. / n.d. / n.d. / n.d. / n.d. | n.d. | 0/18 |
| 26 | S26G+S28G+W56V | n.d. / n.d. / n.d. / n.d. / n.d. / n.d. | n.d. | 0/18 |
| 27 | S26C+W56H+S62D+Q95K | n.d. / n.d. / n.d. / n.d. / n.d. / n.d. | n.d. | 0/18 |
| 28 | S25L+S26R+V29I+L30N+Q96I+Y97R | n.d. / n.d. / n.d. / n.d. / n.d. / n.d. | n.d. | 0/18 |
| 29 | S25F+N35T+W56N+R99F+L100H+S103W | n.d. / n.d. / n.d. / 2.41 / 2.54 / n.d. | 2.48 | 0/18 |
| 30 | Q27I+V29Y+Y31F+S33K+W56E+L100S | n.d. / n.d. / n.d. / n.d. / n.d. / n.d. | n.d. | 0/18 |
| 31 | S25F+S33L+N35T+W56N+T59E+E61I | 0.94 / 0.81 / 0.83 / 0.75 / 0.55 / 0.72 | 0.77 | 1/18 (1.73) |
| 32 | S25L+V29T+S62Y+H98N | 1.09 / 0.98 / 0.83 / 0.77 / 0.56 / 1.32 | 0.93 | 0/18 |
| 33 | S26L+Q27W+W56H+S62D+Y97L+P101T | 0.09 / 0.36 / 0.27 / 0.22 / -0.26 / 1.05 | 0.29 | 0/18 |
| 34 | S26G+S28G+N37P+W56G | 0.78 / 1.93 / 1.94 / 1.94 / 1.16 / 1.82 | 1.59 | 3/18 (2.01) |
| 35 | Y31F+S33R+W56D+T59F+S103Q | 1.04 / 0.94 / 0.60 / 0.73 / 0.48 / 1.00 | 0.80 | 0/18 |
| 36 | V29W+K36W+W56G | 0.40 / 0.22 / 0.07 / 0.12 / 0.19 / 0.37 | 0.23 | 0/18 |
| 37 | S25F+S26G+Q27P+S28M+W56G+A57W | n.d. / n.d. / n.d. / n.d. / n.d. / n.d. | n.d. | 0/18 |
| 38 | V29W+S38R+V39Q+W56G | n.d. / n.d. / n.d. / n.d. / n.d. / n.d. | n.d. | 1/18 (1.17) |
| 39 | S25Q+L30Q+Y31P+W56D | -0.27 / -0.54 / -0.27 / -0.46 / -0.39 / -0.51 | -0.40 | 1/18 (1.88) |
| 40 | V29W+W56G+A57F+R60V+S62F+Y97Q | n.d. / 2.20 / n.d. / 4.01 / n.d. / 3.30 | 3.17 | 2/18 (2.12) |
| 41 | K24I+Y31D+W56D | 0.09 / 0.17 / 0.10 / 0.08 / 0.06 / 0.27 | 0.13 | 0/18 |
| 42 | S25Q+V29G+N37P+W56D+Q96M+R99K+S103M | 1.10 / 0.36 / 0.83 / 1.00 / 1.89 / 0.31 | 0.92 | 1/18 (1.43) |
| 43 | Y31F+A40S+W56D+S58W | 0.52 / 0.51 / 0.83 / 0.80 / 0.66 / 0.58 | 0.65 | 0/18 |
| 44 | S26L+L30V+S33F+W56H+S62D | -0.17 / -0.24 / -0.26 / -0.30 / -0.04 / 0.11 | -0.15 | 0/18 |
| 45 | S25P+N37C+A40M+W56D | n.d. / n.d. / n.d. / n.d. / n.d. / n.d. | n.d. | 0/18 |
| 46 | S25T+S26W+S28G+W56G+T59L | 0.45 / 0.02 / -0.13 / -0.04 / 0.00 / 0.22 | 0.09 | 0/18 |
| 47 | K24R+S25Q+W56D+H98Y | 0.13 / 0.07 / -0.06 / -0.10 / -0.20 / 0.04 | -0.02 | 1/18 (2.30) |
| 48 | S25Q+R34V+W56D | 0.07 / 0.15 / -0.01 / -0.11 / 0.09 / -0.02 | 0.03 | 2/18 (3.27) |
| 49 | S26L+W56H+S62D+Y97N | n.d. / n.d. / n.d. / n.d. / n.d. / n.d. | n.d. | 0/18 |
| 50 | S25L+S26R+V29T+E61L | 0.25 / 0.93 / 0.44 / 0.28 / 0.76 / 0.34 | 0.50 | 1/18 (2.80) |

For reference, 5 entries of the list once more:

| changes | replicates, log10 nM | mean log10 Kd (nM) | signal with controls |
|---|---|---|---|
| S26L+L30V+S33F+W56H+S62D | -0.17 / -0.24 / -0.26 / -0.30 / -0.04 / 0.11 | -0.15 | 0/18 |
| S25Q+R34V+W56D | 0.07 / 0.15 / -0.01 / -0.11 / 0.09 / -0.02 | 0.03 | 2/18 (3.27) |
| S25F+N35T+W56N+R99F+L100H+S103W | n.d. / n.d. / n.d. / 2.41 / 2.54 / n.d. | 2.48 | 0/18 |
| Q27I+V29Y+W56E+A57P+R60F+R99V+S103C | 1.29 / n.d. / n.d. / n.d. / n.d. / n.d. | 1.29 | 0/18 |
| K24R+S26L+N37P+W56H+S62D | n.d. / n.d. / n.d. / n.d. / n.d. / n.d. | n.d. | 0/18 |

A sequence measured in both rounds can read differently, since the two assays cover different ranges.
In the paper, a design with two or fewer of six values counts as a poor binder.
Nonspecific signal, from three strains lacking the peptide, appeared in 4% of pairings of all light chain designs, centred on 2.64 (5% of these signals below 1.59); values are not corrected for it. Also given: how often the same scFv was detected with the empty control strains, with their mean in brackets.
The parent sequence was in this pool as ten entries: three were never detected, three once, and four in most replicates, with averages from 0.34 to 2.37.